Test results published in patent US12576087B2, “Aryloxypiperidine pyrazole compounds as indoleamine 2,3-dioxygenase inhibitors” (Merck Sharp & Dohme LLC, priority 2018, dated 2026).

Chains of the proteins cited; added tags and fusions are not shown.
UniProt P14902, whole entry: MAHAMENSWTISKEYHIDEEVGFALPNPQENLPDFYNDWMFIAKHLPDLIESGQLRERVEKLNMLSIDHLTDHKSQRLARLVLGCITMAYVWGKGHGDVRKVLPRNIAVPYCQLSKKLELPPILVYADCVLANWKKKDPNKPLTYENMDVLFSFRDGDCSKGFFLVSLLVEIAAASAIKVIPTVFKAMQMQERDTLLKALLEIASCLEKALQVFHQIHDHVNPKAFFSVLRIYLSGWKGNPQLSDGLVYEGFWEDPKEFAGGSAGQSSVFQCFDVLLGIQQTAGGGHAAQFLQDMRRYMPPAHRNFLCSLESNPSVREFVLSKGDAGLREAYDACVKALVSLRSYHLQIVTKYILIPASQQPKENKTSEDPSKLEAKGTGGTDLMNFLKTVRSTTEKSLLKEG

Each molecule was assayed against IDO1 (Homo sapiens, UniProt P14902) (assay: IDO1 Cellular Assay in HeLa Cells Stimulated with IFNγ). Settings: HeLa cells stimulated with IFNγ 100 ng/mL, about 48 hours.
Format: cell-based
`O=C(Cn1nc(C(=O)N2CC[C@H](O)[C@H](F)C2)c2c1CCC2)N1CCC(C(F)(F)c2ccccc2)CC1` [Example 175, 1-(4-(Difluoro(phenyl)methyl)piperidin-1-yl)-2-(3-((3R,4S)-3-fluoro-4-hydroxypiperidine-1-carbonyl)-5,6-dihydrocyclopenta[c]pyrazol-1(4H)-yl)ethanone] gave an EC50 of 118 nM. Work on `C[C@@H]1CN(C(=O)c2nn(CC(=O)N3CCC(Oc4ccc5sncc5c4)CC3)c3c2CCC3)C[C@H](C)O1` [Example 161, 1-{4-[(1,2-benzothiazol-5-yl)oxy]piperidin-1-yl}-2-{3-[(2R,6S)-2,6-dimethylmorpholine-4-carbonyl]-5,6-dihydrocyclopenta[c]pyrazol-1(4H)-yl}ethan-1-one] yielded an EC50 of 239 nM. Work on `O=C(Cn1nc(C(=O)N2CC[C@@H](O)[C@@H](F)C2)c2c1CCCC2)N1CCC(Oc2cccc(Cl)c2)CC1` [Example 48, 1-(4-(3-chlorophenoxy)piperidin-1-yl)-2-(3-((3S,4R)-3-fluoro-4-hydroxypiperidine-1-carbonyl)-4,5,6,7-tetrahydro-1H-indazol-1-yl)ethanone] yielded an EC50 of 132 nM. Work on `C[C@@H]1CN(C(=O)c2nn(CC(=O)N3CCC(Oc4ccccc4F)CC3)c3c2CCC3)C[C@H](C)O1` [Example 101, 2-{3-[(2R,6S)-2,6-dimethylmorpholine-4-carbonyl]-5,6-dihydrocyclopenta[c]pyrazol-1(4H)-yl}-1-[4-(2-fluorophenoxy)piperidin-1-yl]ethan-1-one] yielded an EC50 of 21.9 nM. `CCOC(=O)c1nn(CC(=O)N2CCC(Oc3ccccc3C)CC2)c2c1CCC2` [Example 49, ethyl 1-(2-oxo-2-(4-(o-tolyloxy)piperidin-1-yl)ethyl)-1,4,5,6-tetrahydrocyclopenta[c]pyrazole-3-carboxylate] was tested, and the EC50 was 139 nM. `Cc1ccccc1SC1CCN(C(=O)Cn2nc(C(=O)N3CC[C@@H](O)[C@@H](F)C3)c3c2C[C@H]2C[C@@H]32)CC1` [Example 177, 2-((3bR,4aR)-3-((3S,4R)-3-Fluoro-4-hydroxypiperidine-1-carbonyl)-3b,4,4a,5-tetrahydro-1H-cyclopropa[3,4]cyclopenta[1,2-c]pyrazol-1-yl)-1-(4-(o-tolylthio)piperidin-1-yl)ethanone] gave an EC50 of 0.51 nM. In the case of `Cc1cc(F)ccc1OC1CCN(C(=O)Cn2nc(C(=O)N3CCN(C(=O)CO)CC3)c3c2CCC3)CC1` [Example 88, 1-[4-(4-fluoro-2-methyl-phenoxy)-1-piperidyl]-2-[3-[4-(2-hydroxyacetyl)piperazine-1-carbonyl]-5,6-dihydro-4H-cyclopenta[c]pyrazol-1-yl]ethanone], the EC50 is reported as 55.2 nM. For `C[C@@H]1CN(C(=O)c2nn(CC(=O)N3CCC(Oc4ccccc4C#N)CC3)c3c2CCC3)C[C@H](C)O1` [Example 106, 2-{[1-({3-[(2R,6S)-2,6-dimethylmorpholine-4-carbonyl]-5,6-dihydrocyclopenta[c]pyrazol-1(4H)-yl}acetyl)piperidin-4-yl]oxy}benzonitrile], the EC50 was 44 nM. In the case of `Cc1ccccc1OC1CCN(C(=O)Cn2nc(C(=O)N3CCC(OCCO)CC3)c3c2CCCC3)CC1` [Example 20, 2-(3-(4-(2-hydroxyethoxy)piperidine-1-carbonyl)-4,5,6,7-tetrahydro-1H-indazol-1-yl)-1-(4-(o-tolyloxy)piperidin-1-yl)ethanone], the EC50 is reported as 1.75 nM. With `O=C(Cn1nc(C(=O)N2CCC(O)(CF)CC2)c2c1CCCC2)N1CCC(Oc2cccc(Cl)c2)CC1` [Example 46, 1-(4-(3-chlorophenoxy)piperidin-1-yl)-2-(3-(4-(fluoromethyl)-4-hydroxypiperidine-1-carbonyl)-4,5,6,7-tetrahydro-1H-indazol-1-yl)ethanone] the EC50 was 24.4 nM. For `C[C@H]1C[C@H](Oc2ncccc2Cl)CCN1C(=O)Cn1nc(C(=O)N2CC[C@@H](O)[C@@H](F)C2)c2c1CCC2` [Example 70, 1-((2S,4R)-4-((3-chloropyridin-2-yl)oxy)-2-methylpiperidin-1-yl)-2-(3-((3S,4R)-3-fluoro-4-hydroxypiperidine-1-carbonyl)-5,6-dihydrocyclopenta[c]pyrazol-1(4H)-yl)ethanone, TFA], the EC50 was 261 nM. `O=C(Cn1nc(C(=O)N2CCC(O)CC2)c2c1CCCC2)N1CCC(Oc2cccc(Cl)c2)CC1` [Example 44, 1-(4-(3-chlorophenoxy)piperidin-1-yl)-2-(3-(4-hydroxypiperidine-1-carbonyl)-4,5,6,7-tetrahydro-1H-indazol-1-yl)ethanone] showed an EC50 of 14.9 nM. `Cc1ccccc1OC1CCN(C(=O)Cn2nc(C(=O)N3CCC(O)CC3)c3c2CCCC3)CC1` [Example 18, 2-(3-(4-hydroxypiperidine-1-carbonyl)-4,5,6,7-tetrahydro-1H-indazol-1-yl)-1-(4-(o-tolyloxy)piperidin-1-yl)ethanone] gave an EC50 of 1.19 nM. Molecule `C[C@@H]1CN(C(=O)c2nn(CC(=O)N3CCC(Oc4ccc5c(c4)CCC5)CC3)c3c2CCC3)C[C@H](C)O1` [Example 94, 1-{4-[(2,3-dihydro-1H-inden-5-yl)oxy]piperidin-1-yl}-2-{3-[(2R,6S)-2,6-dimethylmorpholine-4-carbonyl]-5,6-dihydrocyclopenta[c]pyrazol-1(4H)-yl}ethan-1-one] has an EC50 of 4.36 nM. `CCOC(=O)c1nn(CC(=O)N2CCC(Oc3ccccc3C)CC2)c2c1CCCC2` [Example 47, ethyl 1-(2-oxo-2-(4-(o-tolyloxy)piperidin-1-yl)ethyl)-4,5,6,7-tetrahydro-1H-indazole-3-carboxylate] showed an EC50 of 30.4 nM. Work on `C[C@@H]1CN(C(=O)c2nn(CC(=O)N3CCC(Oc4cc(F)cc(F)c4F)CC3)c3c2CCC3)C[C@H](C)O1` [Example 144, 2-{3-[(2R,6S)-2,6-dimethylmorpholine-4-carbonyl]-5,6-dihydrocyclopenta[c]pyrazol-1(4H)-yl}-1-[4-(2,3,5-trifluorophenoxy)piperidin-1-yl]ethan-1-one] yielded an EC50 of 15.4 nM. `C[C@H]1C[C@H](Oc2ncccc2C(F)(F)F)CCN1C(=O)Cn1nc(C(=O)N2CC[C@@H](O)[C@@H](F)C2)c2c1C[C@H]1C[C@@H]21` [Example 67, 2-((3bR,4aR)-3-((3S,4R)-3-fluoro-4-hydroxypiperidine-1-carbonyl)-3b,4,4a,5-tetrahydro-1H-cyclopropa[3,4]cyclopenta[1,2-c]pyrazol-1-yl)-1-((2S,4R)-2-methyl-4-((3-(trifluoromethyl)pyridin-2-yl)oxy)piperidin-1-yl)ethanone] was tested, and the EC50 was 110 nM. Work on `CC(=O)NC1CCN(C(=O)c2nn(CC(=O)N3CCC(Oc4ccccc4Cl)CC3)c3c2CCCC3)CC1` [Example 6, N-(1-(1-(2-(4-(2-chlorophenoxy)piperidin-1-yl)-2-oxoethyl)-4,5,6,7-tetrahydro-1H-indazole-3-carbonyl)piperidin-4-yl)acetamide] yielded an EC50 of 2.24 nM. In the case of `CCOC(=O)c1nn(CC(=O)N2CC[C@@H](Oc3ncccc3Cl)C[C@H]2C)c2c1[C@@H]1C[C@@H]1C2` [Example 73, (3bR,4aR)-ethyl 1-(2-((2R,4R)-4-((3-chloropyridin-2-yl)oxy)-2-methylpiperidin-1-yl)-2-oxoethyl)-3b,4,4a,5-tetrahydro-1H-cyclopropa[3,4]cyclopenta[1,2-c]pyrazole-3-carboxylate], the EC50 is reported as 21.4 nM. For `O=C(c1nn(CC(=O)N2CCC(Oc3ncccc3Cl)CC23CC3)c2c1CCCC2)N1CC[C@@H](O)[C@@H](F)C1` (single isomer, unassigned) [Example 69, 1-((S or R)-7-((3-chloropyridin-2-yl)oxy)-4-azaspiro[2.5]octan-4-yl)-2-(3-((3S,4R)-3-fluoro-4-hydroxypiperidine-1-carbonyl)-4,5,6,7-tetrahydro-1H-indazol-1-yl)ethanone, TFA], the EC50 was 284 nM.

Counter-ions that a name gives are not always drawn.
